Ab-91 heavy chain CDR variants: yeast mating affinities

Data: MIT Lincoln Laboratory AlphaSeq set, Engelhart et al. 2022, doi:10.1038/s41597-022-01779-4, as distributed in FLAb.

All variants were tested on one target, the spike HR2 peptide PDVDLGDISGINAS (SARS-CoV-2).

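The starting antibody came from a phage panning campaign against this peptide. In library AAYL51, one, two or three CDR residues were substituted; doubles and triples were drawn at random. In AlphaSeq, yeast of one mating type display the scFv and yeast of the other type display the target. After mating in shaken culture at 30 °C for 16 h, diploids were selected and their barcode pairs sequenced. A regression on co-assayed BCL2-family reference pairs converts the normalised counts of each replicate to an apparent Kd. Each pool was mated in three replicate cultures.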

Parent scFv Ab-91: VL joined to VH by a 15-residue (Gly4Ser)3 linker. Changes lie in the heavy chain CDRs alone.
VL: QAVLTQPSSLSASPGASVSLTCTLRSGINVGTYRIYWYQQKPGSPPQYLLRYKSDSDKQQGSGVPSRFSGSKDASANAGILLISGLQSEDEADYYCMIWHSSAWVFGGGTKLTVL
VH: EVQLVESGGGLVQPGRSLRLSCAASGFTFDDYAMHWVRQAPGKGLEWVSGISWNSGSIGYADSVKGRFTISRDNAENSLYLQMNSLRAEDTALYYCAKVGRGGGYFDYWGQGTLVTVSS

Variants are written as CDR1, CDR2 and CDR3 of the heavy chain (limits as in the source). Parent: GFTFDDYAMH, GISWNSGSIGYADSVK, VGRGGGYFDY. Affinities are written as log10 Kd with Kd in nM; a lower number is a better binder. "n.d." means that the variant was in the library but no mating with the target was seen in that replicate; the authors take this as a sign of poor binding, and no number exists. Background: pairings of library AAYL51 with three empty control strains gave a value in 21% of cases (median 4.54, 5th percentile 3.26). Values in that range, when seen in few replicates, are hard to tell from nonspecific mating. Also given: how often the same scFv was detected with the empty control strains, with their mean in brackets. Parent in this assay: reference entry 1.86, copy in this library 0.88.

| CDR-H1 | CDR-H2 | CDR-H3 | log10 Kd, replicates | control signals |
|---|---|---|---|---|
| GFTFDDYAMH | GISWNSGSIGGAFSVK | VGRGGPYFDY | n.d. n.d. 4.79 | 0/9 |
| GFTFWNYAKH | GISWNSGSIGYADSVK | VGRGGGYFDY | n.d. n.d. n.d. | 2/9 (4.06) |
| GFTFDDAAMH | GISWNSGSIGYADSVK | VGRGGGYFDY | 3.68 2.07 1.75 | 1/9 (3.23) |
| GFTFDDLAMP | GISWNCGSIGYADSVK | VGRGGGYFDY | 4.24 n.d. n.d. | 4/9 (4.71) |
| GFTFDDYAMH | GISWNSGSIGYADSVK | VGRGGLYNDY | n.d. n.d. n.d. | 2/9 (3.54) |
| GFAFDKYAMH | GISWNSGSIGYADSVK | VGWGGGYFDY | 0.83 0.78 0.10 | 4/9 (4.80) |
| GFTFDDYEMH | GISWNSGSIGYADSVK | VNRGGGYGDY | 4.67 6.32 n.d. | 2/9 (5.18) |
| GETFDDYAMH | GTSWNSGSIGYADSVK | VGRWGGYFDY | 3.74 n.d. n.d. | 0/9 |
| GTTFDDYAMH | TISWNSGSIGYADSVK | VGSGGGYFDY | 6.03 n.d. n.d. | 1/9 (4.16) |
| GFTFDDYAQH | GISWNSGSIGYADSVK | VGRGGHFFDY | n.d. n.d. n.d. | 1/9 (3.73) |
| GFTFDDYANH | GISWNSGSIGYADSVK | VGMGKGYFDY | 4.82 n.d. 5.11 | 2/9 (4.20) |
| GFTFDDYAMH | KISWNSGSMGPADSVK | VGRGGGYFDY | n.d. 3.22 n.d. | 4/9 (4.63) |
| GFTFDDYAMH | GISWNSSSIGYADSVK | VGRYGGWFDY | 3.69 n.d. n.d. | 5/9 (4.56) |
| GFYFDDYAMH | GISWNSGSIGYFDSVK | VGRGGGYFDY | n.d. n.d. n.d. | 0/9 |
| GFTFDNYAMH | GISWNSGSIGRADSVK | VGRGGGYFDY | 3.38 3.52 n.d. | 0/9 |
| GFTFDDYIMH | GISWNSDSIGYADAVK | VGRGGGYFDY | 4.43 6.36 3.61 | 3/9 (5.17) |
| WFTFDDYAMH | GISWNSGSGGYADSVK | VGRGGGYFDY | n.d. n.d. n.d. | 0/9 |
| GFTFDDYAMH | GISWTSGSIGYADSVK | EGRGGGYGDY | n.d. n.d. n.d. | 1/9 (4.80) |
| GFTFDDYDMH | GISWNIGSIGYADSVK | VGRGGGYFDY | 5.56 4.92 5.22 | 2/9 (4.19) |
| GFTFDDYAMH | GKSWDSGSIGYADSVK | VGRPGGYFDY | n.d. n.d. n.d. | 0/9 |
| GFTFDDYASH | GISWNSGSIGYADTVK | VGRGGYYFDY | 4.14 n.d. n.d. | 4/9 (4.29) |
| GFTFDDDAMA | GISPNSGSIGYADSVK | VGRGGGYFDY | 4.84 4.25 5.71 | 7/9 (4.84) |
| GFTFDDYAHH | GISWNSGSIGYADSVK | MGRQGGYFDY | n.d. n.d. n.d. | 2/9 (2.44) |
| GFTFDDYAMR | GISWNSGSIGYAASVK | VGRGGGYLDY | n.d. n.d. n.d. | 0/9 |
| GFTFDDYAMH | GIQWNSGSISYADSKK | VGRGGGYFDY | n.d. n.d. n.d. | 1/9 (4.25) |
| GFTFDDYAGH | GISWNSGSIGYADQVK | AGRGGGYFDY | n.d. n.d. n.d. | 0/9 |
| GFTFDDYAMH | GISWNSGSIGYADWVK | VGRGGGYKDK | n.d. n.d. n.d. | 1/9 (3.73) |
| GFTFDDYAMH | GISWNSGSIGYAPSVK | VGRGGGYFDY | 3.99 3.81 3.95 | 0/9 |
| RFTFDDYAMH | GISWNSGSIGYADSVE | VGRGGSYFDY | 1.23 1.33 0.96 | 3/9 (4.38) |
| GFTFDDYAMH | GISWNSGSIGYRDSVK | CGRNGGYFDY | n.d. 5.03 n.d. | 2/9 (3.87) |
| GFTFDDYAMH | GISWNSKSIGYADSVK | VGRGGGYFDY | n.d. n.d. n.d. | 0/9 |
| GFTFDDIKMH | GISWNSGSTGYADSVK | VGRGGGYFDY | n.d. n.d. n.d. | 0/9 |
| GFTFDDYAMH | YASWNSGSIGYADSVK | VGRTGGYFDY | n.d. n.d. n.d. | 1/9 (6.21) |
| GFTFDDYAMH | GISWNSGSILYADSVK | VGRGGGYFDY | n.d. n.d. n.d. | 0/9 |
| AFTFDDYAMY | GISWNSGSIGYADSVK | VGRGGGYYDY | 4.17 4.61 4.55 | 8/9 (5.01) |
| GFTFDDYAMH | GISWDSGSIGYEDSVK | VGRGGGYFDK | n.d. n.d. n.d. | 0/9 |
| GFTFDDTAMH | GISWNSLSIWYADSVK | VGRGGGYFDY | 3.88 4.31 n.d. | 0/9 |
| GCTFDDYAMH | GISWNSGSIGWADSVK | VGRGNGYFDY | n.d. n.d. n.d. | 2/9 (5.52) |
| PFTFDIYAMH | GISWNSGSIGYADSVK | VGRFGGYFDY | 4.05 4.63 4.07 | 5/9 (4.76) |
| GFTFDDYAMH | GIMWNSGSIGWADRVK | VGRGGGYFDY | n.d. n.d. n.d. | 0/9 |
| GFTFDDYAMH | GCSWNSGSIGYADSVC | VGTGGGYFDY | n.d. n.d. n.d. | 0/9 |
| GFTFSDYAMH | GISWNSGSIGQADSVK | VGRGGGYFDY | n.d. 4.24 n.d. | 2/9 (4.26) |
| GFTFDDNAMH | GISWNWGSIIYADSVK | VGRGGGYFDY | n.d. n.d. n.d. | 1/9 (4.23) |
| GFTFDDYAMR | EISWNSGSIGYADSVK | CGRGGGYFDY | 3.91 n.d. n.d. | 3/9 (4.46) |
| GFTFDDYAMH | GISWNSGSIGYADSVK | VGRGGGFFDY | 2.69 2.51 n.d. | 1/9 (1.95) |
| GMKFDDYAMH | GISWNSGNIGYADSVK | VGRGGGYFDY | n.d. n.d. 4.37 | 3/9 (4.27) |

The last 3 entries again:

| CDR-H1 | CDR-H2 | CDR-H3 | log10 Kd, replicates | control signals |
|---|---|---|---|---|
| GFTFDDYAMR | EISWNSGSIGYADSVK | CGRGGGYFDY | 3.91 n.d. n.d. | 3/9 (4.46) |
| GFTFDDYAMH | GISWNSGSIGYADSVK | VGRGGGFFDY | 2.69 2.51 n.d. | 1/9 (1.95) |
| GMKFDDYAMH | GISWNSGNIGYADSVK | VGRGGGYFDY | n.d. n.d. 4.37 | 3/9 (4.27) |